DENV2 CPE: DENV2-induced cell death inhibition; CPE inhibition, % at 9.99 µM; AID 651640; actives 1.7% (n = 350,000); DENV2-infected cells, cytopathic effect rescue, plate reader; in the data active means CPE inhibition above about 20%, passing the limit was not always enough; inconclusive means no clear call, values can overlap the other calls; tested in BHK-21 cells;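 further: 0% = median of neutral control wells and 100% = median of positive control wells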
Cneo AK release: Cryptococcus neoformans lysis via adenylate kinase release; actives 0.2% (n = 360,000); lysis activity, % at 15 µM; C. neoformans lysis, adenylate kinase release luminescence, 4 h; normalised: neutral wells 0, clomiphene wells 100; AID 651654;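 active means mean lysis activity across replicates of at least 80%, whatever share of replicates individually reach that level; inactive means mean lysis activity below 80%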
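read-out = cell lysis signal | test system = log-phase Cryptococcus neoformans yeast cells | input = cells at 5 × 10^6 per mL | medium = fresh YPD growth medium | signal = luminescent adenylate kinase detection reagent | timing = 4 h at 37 °C static, read 1 h later | dosing = single dose | controls = Clomiphene as positive lysis control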
Yeast UUG start: alters start codon recognition fidelity in yeast. S. cerevisiae UUG-firefly luciferase reporter, luminescence/redox ratio. 350,000 tested, 0.13% active. activity score, % at 18.7 µM. AID 602363;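 active means replicate mean at a twofold rise or more, about +100% in these data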;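 further: firefly luciferase made from a UUG start codon reports start codon fidelity; reporter light over untreated wells divided by growth signal over untreated wells; some hits fall short of that in this replicate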
E-selectin induc: E-selectin induction on HUVECs; P16581; HUVEC E-selectin immunofluorescence imaging; normalized: neutral wells 0, TNF-alpha wells 100; activation, % at 7.58 µM; actives 0.37% (n = 260,000); AID 686992;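 active means mean E-selectin-positive cell signal at least 10% of the positive control, reached in at least 60% of replicates, without over 20% cell loss; inconclusive means no rule given, readout overlaps actives, possibly toxicity-flagged; inactive means the rest, including those meeting only one limit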
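Material: HUVEC primary endothelial cells; Amount: 3,000 cells per well; Dosing: single concentration; Medium: EGM-2 growth medium on 0.1% gelatin-coated wells; Read-out basis: percent E-selectin-positive cells; Signal: immunofluorescence imaging; Control set: TNF-alpha, DMSO.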
The depositor's hits bear a star; ! = not active in a repeat. Only some compounds are listed: those with a hit (about 1.8% of all), similar ones and a draw of the others.

Results for CNC[C@H]1Oc2c(NS(=O)(=O)c3cccs3)cccc2C(=O)N([C@H](C)CO)C[C@@H]1C ?
DENV2 CPE: -1.7; Cneo AK release: 95.6*!; Yeast UUG start: 13.2; E-selectin induc: 0.0

How did CNC[C@H]1Oc2c(NS(=O)(=O)c3cccs3)cccc2C(=O)N([C@@H](C)CO)C[C@H]1C do in these assays?
DENV2 CPE: 26.5*; Cneo AK release: 2.3; Yeast UUG start: 1.8; E-selectin induc: 0.0

What do the screens show for `CNC[C@@H]1Oc2c(NS(=O)(=O)c3cccs3)cccc2C(=O)N([C@H](C)CO)C[C@H]1C`?
DENV2 CPE: 6.3; Cneo AK release: -2.0; Yeast UUG start: 0.1; E-selectin induc: -0.2

Results for CNC[C@@H]1Oc2c(NS(=O)(=O)c3cccs3)cccc2C(=O)N([C@H](C)CO)C[C@@H]1C ?
DENV2 CPE: 2.5; Cneo AK release: 6.9; Yeast UUG start: -3.1; E-selectin induc: 0.7

What do the screens show for `COCC(=O)Nc1ccc2c(c1)[C@H]1C[C@@H](CC(=O)N3CCc4ccccc4C3)O[C@H](CO)[C@H]1O2`?
DENV2 CPE: -4.3; Cneo AK release: -4.8; Yeast UUG start: 8.4; E-selectin induc: 0.0

How did COc1ccc2c3c(n(C)c2c1)[C@H](CO)N(Cc1ccccc1)CC31CN(C)C1 do in these assays?
DENV2 CPE: -0.2; E-selectin induc: -0.3

What do the screens show for `NC(=O)c1ccccc1NC(=O)COC(=O)C1(c2ccccc2)CC1`?
DENV2 CPE: 32.4*; Cneo AK release: -0.9; Yeast UUG start: 33.8

What do the screens show for `NC(=O)c1ccccc1NC(=O)CC1(CC(=O)O)CCCC1`?
DENV2 CPE: 1.2; Cneo AK release: -0.2; Yeast UUG start: -1.9; E-selectin induc: 0.0

How did COCC(=O)N(C)C[C@H]1Oc2ncc(C3=CCCC3)cc2C(=O)N([C@H](C)CO)C[C@H]1C do in these assays?
DENV2 CPE: 1.8; Cneo AK release: 43.5; Yeast UUG start: 5.6; E-selectin induc: -0.1

Results for O=C(c1cccc(F)c1)N1CCCCN2[C@H](CO)[C@H](c3ccc(-c4ccccc4)cc3)[C@H]2C1 ?
DENV2 CPE: 40.9*; Cneo AK release: 1.7; Yeast UUG start: -5.2; E-selectin induc: -0.1

Results for COc1cccc(-c2ccc([C@H]3[C@H]4CNCC(=O)N4[C@H]3CO)cc2)c1 ?
DENV2 CPE: 22.1*; E-selectin induc: 0.1

Results for O=C(c1cccc(F)c1)N1CCCCN2[C@H](CO)[C@@H](c3ccc(-c4ccccc4)cc3)[C@@H]2C1 ?
DENV2 CPE: -13.4; Cneo AK release: 0.0; Yeast UUG start: -8.6; E-selectin induc: 0.1

What do the screens show for `COc1cccc(-c2ccc([C@@H]3[C@H](CO)N4CCCCN(C(=O)c5ccc(F)cc5)C[C@@H]34)cc2)c1`?
DENV2 CPE: 41.1*; Cneo AK release: -5.9; Yeast UUG start: 26.7; E-selectin induc: 0.1

How did COc1cccc(-c2ccc([C@@H]3[C@@H](CO)N4CCCCN(CC5CC5)C[C@@H]34)cc2)c1 do in these assays?
DENV2 CPE: 15.9; Cneo AK release: 62.2; Yeast UUG start: 22.7; E-selectin induc: -0.1

How did COc1cccc(-c2ccc([C@@H]3[C@H]4CN(CC5CC5)CCCCN4[C@H]3CO)cc2)c1 do in these assays?
DENV2 CPE: 58.4*; Cneo AK release: -4.0; Yeast UUG start: -1.4; E-selectin induc: -0.1

What do the screens show for `COc1ccccc1-c1cnc2c(c1)C(=O)N([C@H](C)CO)C[C@H](C)[C@H](CN(C)CC1CCOCC1)O2`?
DENV2 CPE: 2.4; Cneo AK release: -1.7; E-selectin induc: 0.4

Results for C[C@@H]1CN([C@@H](C)CO)C(=O)Cc2cc(NC(=O)Nc3ccccc3)ccc2O[C@@H]1CN(C)C(=O)Nc1ccc2c(c1)OCO2 ?
DENV2 CPE: -8.0; Cneo AK release: -0.9; Yeast UUG start: 9.7; E-selectin induc: 0.1

What do the screens show for `C[C@H](CO)N1C[C@H](C)[C@H](CN(C)Cc2ccc3c(c2)OCO3)Oc2ccc(NC(=O)Nc3ccc(C(F)(F)F)cc3)cc2CC1=O`?
DENV2 CPE: 53.7*; Cneo AK release: 59.3; Yeast UUG start: 14.2; E-selectin induc: 1.2

Results for CC(C)NC(=O)Nc1ccc2c(c1)CC(=O)N([C@H](C)CO)C[C@@H](C)[C@H](CN(C)Cc1ccc3c(c1)OCO3)O2 ?
DENV2 CPE: inconclusive; Cneo AK release: 100.4*; E-selectin induc: -23.4

How did CC(C)NC(=O)Nc1ccc2c(c1)CC(=O)N([C@H](C)CO)C[C@H](C)[C@@H](CN(C)C(=O)Nc1ccc3c(c1)OCO3)O2 do in these assays?
Cneo AK release: 99.8*; Yeast UUG start: 30.8; E-selectin induc: -0.1

Results for C[C@H]1CN([C@@H](C)CO)C(=O)Cc2cc(NC(=O)Nc3ccccc3)ccc2O[C@H]1CN(C)C(=O)Nc1ccc2c(c1)OCO2 ?
Cneo AK release: 101.8*; Yeast UUG start: 30.8; E-selectin induc: -0.2

What do the screens show for `O=S(=O)(N[C@H]1CC[C@@H](CCn2cc(C3(O)CCCC3)nn2)O[C@@H]1CO)c1ccccc1`?
DENV2 CPE: inconclusive; Cneo AK release: 2.0; Yeast UUG start: -8.0; E-selectin induc: -0.9

Results for C[C@@H]1CN([C@H](C)CO)C(=O)Cc2cc(NC(=O)CCC(F)(F)F)ccc2O[C@H]1CN(C)Cc1ccc2c(c1)OCO2 ?
DENV2 CPE: 44.8*; Cneo AK release: -6.2; Yeast UUG start: -5.6; E-selectin induc: -3.0

What do the screens show for `C[C@@H]1CN([C@@H](C)CO)C(=O)Cc2cc(NC(=O)NC3CCCCC3)ccc2O[C@H]1CN(C)C(=O)Nc1ccc2c(c1)OCO2`?
DENV2 CPE: -4.1; Cneo AK release: 1.8; Yeast UUG start: 6.1; E-selectin induc: 27.8*

How did C[C@H]1CN([C@@H](C)CO)C(=O)Cc2cc(NC(=O)CCC(F)(F)F)ccc2O[C@H]1CN(C)Cc1ccc2c(c1)OCO2 do in these assays?
DENV2 CPE: 19.5; Cneo AK release: 15.1; Yeast UUG start: 3.7; E-selectin induc: -3.1

What do the screens show for `C[C@H](CO)N1C[C@H](C)[C@H](CN(C)C(=O)Nc2ccc3c(c2)OCO3)Oc2ccc(NC(=O)NC3CCCCC3)cc2CC1=O`?
DENV2 CPE: 3.7; Cneo AK release: 51.1; Yeast UUG start: 7.9; E-selectin induc: -7.7

What do the screens show for `C[C@@H](NC(=O)C[C@H]1C[C@@H]2c3cc(NC(=O)CN(C)C)ccc3O[C@@H]2[C@@H](CO)O1)c1ccccc1`?
DENV2 CPE: 9.8; Cneo AK release: -1.0; Yeast UUG start: -2.1; E-selectin induc: 0.1

How did O=S(=O)(N[C@@H]1CC[C@@H](CCn2cc(-c3cccnc3)nn2)O[C@@H]1CO)c1ccccc1 do in these assays?
DENV2 CPE: 10.4; Cneo AK release: -2.9; Yeast UUG start: -6.7; E-selectin induc: -0.8

Results for Cc1ccccc1S(=O)(=O)N[C@@H]1CC[C@H](CCn2cc(-c3ccccc3)nn2)O[C@@H]1CO ?
DENV2 CPE: 20.8*; Cneo AK release: 62.8; Yeast UUG start: -0.9; E-selectin induc: 0.4

Results for Cc1ccccc1S(=O)(=O)N[C@H]1CC[C@@H](CCn2cc(-c3ccccc3)nn2)O[C@H]1CO ?
DENV2 CPE: 3.6; Cneo AK release: 55.2; Yeast UUG start: 21.9; E-selectin induc: -0.2

Fetched by compound from the list above:
What do the screens show for `COc1ccccc1-c1cnc2c(c1)C(=O)N([C@H](C)CO)C[C@H](C)[C@H](CN(C)CC1CCOCC1)O2`?
DENV2 CPE: 2.4; Cneo AK release: -1.7; E-selectin induc: 0.4

How did O=S(=O)(N[C@@H]1CC[C@@H](CCn2cc(-c3cccnc3)nn2)O[C@@H]1CO)c1ccccc1 do in these assays?
DENV2 CPE: 10.4; Cneo AK release: -2.9; Yeast UUG start: -6.7; E-selectin induc: -0.8

What do the screens show for `C[C@@H](NC(=O)C[C@H]1C[C@@H]2c3cc(NC(=O)CN(C)C)ccc3O[C@@H]2[C@@H](CO)O1)c1ccccc1`?
DENV2 CPE: 9.8; Cneo AK release: -1.0; Yeast UUG start: -2.1; E-selectin induc: 0.1

Bioassay records as filed in PubChem.
